The values below are quoted from earlier work in patent US20240390359A1, “METHODS FOR THE TREATMENT AND PREVENTION OF NON-VIRAL TICK-BORNE DISEASES AND SYMPTOMS THEREOF” (priority 2023, published 2024).

Structures are written as SMILES.

In one series the test system is Babesia microti. As to conditions: Mongolian jirds; primaquine given daily; cited from earlier work.
The subject of series [1] is blood stages of P. falciparum. As to conditions: in vivo; cited from earlier work.

For the compound `COc1cc(NC(C)CCCN)c2ncccc2c1` (centres unmarked) [primaquine], the “efficacy against Babesia microti” value in the series on Babesia microti is given as “only suppressive”. Moreover, the “activity against the blood stages of P. falciparum” value in series [1] is on record as “only weak activity”.
